Earlier results as cited in PMC9418147, “Identification and structure-based drug design of cell-active inhibitors of interleukin 17A at a novel C-terminal site” (Scientific Reports, 2022).

Legend:
IL17A signaling in cells = tested on: IL17A signaling in cells; parameters: method as in PMID 27184415; details: read-out: IC50 disrupting cell signaling; cited from earlier work
IL17A = target: IL17A; parameters: method as in PMID 27184415; details: binds N-terminus of IL17A; cited from earlier work

CC[C@H](C)[C@H](N)C(=O)N[C@@H](Cc1c[nH]cn1)C(=O)N[C@H](C(=O)N[C@H](C(=O)N[C@H](C(=O)N1CCC[C@H]1C(=O)N[C@@H](C)C(=O)N[C@@H](CC(=O)O)C(=O)N[C@@H](CC(C)C)C(=O)N[C@@H](Cc1c[nH]c2ccccc12)C(=O)N[C@@H](CC(=O)O)C(=O)N[C@@H](Cc1c[nH]c2ccccc12)C(=O)N[C@H](C(=O)N[C@@H](CC(N)=O)C(=O)N[C@@H](CCCCN)C(=O)O)[C@@H](C)CC)[C@@H](C)CC)[C@@H](C)O)C(C)C [Cmpd 3]
pIC50 (IL17A signaling in cells): ~6.82 | pKd (IL17A): 9.00

pIC50, pKd: −log10 of the molar value.
